{"sequences": {"note": "Amino acid sequences for entries named in this document (tags omitted).", "UniProt P35367, whole entry": "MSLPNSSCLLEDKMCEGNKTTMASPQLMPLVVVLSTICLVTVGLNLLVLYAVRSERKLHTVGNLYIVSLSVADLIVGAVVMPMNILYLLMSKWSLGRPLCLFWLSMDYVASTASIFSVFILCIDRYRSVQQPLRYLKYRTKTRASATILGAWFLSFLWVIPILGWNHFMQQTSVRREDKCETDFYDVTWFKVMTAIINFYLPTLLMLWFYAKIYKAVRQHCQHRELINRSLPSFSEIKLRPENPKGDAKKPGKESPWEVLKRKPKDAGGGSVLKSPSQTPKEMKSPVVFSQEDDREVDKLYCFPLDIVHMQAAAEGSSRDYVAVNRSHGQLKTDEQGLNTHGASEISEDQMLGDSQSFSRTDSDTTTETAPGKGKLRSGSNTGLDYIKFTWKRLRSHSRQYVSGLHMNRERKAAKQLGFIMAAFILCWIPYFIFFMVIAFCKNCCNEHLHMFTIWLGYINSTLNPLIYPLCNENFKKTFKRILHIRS"}, "source": "patent US9259397B2", "about": "(Purdue Pharma L.P., priority 2000, dated 2016)", "origin": "cited, not measured here", "key": {"[1]": {"conditions": "loratadine therapy"}, "[2]": {"target": "histamine H1 receptor (Homo sapiens, UniProt P35367)", "conditions": "in vivo"}}, "data": [{"substance": "ethyl 4-(8-chloro-5,6-dihydro-11H-benzo cyclohepta pyridin-11-ylidene)-1-piperidinecarboxylate [loratadine]", "values": [{"measurement": "most common adverse side effects", "setting": "[1]", "result": "headache, somnolence, fatigue, and dry mouth"}, {"measurement": "duration of antihistamine activity", "setting": "[2]", "result": "> 24", "unit": "h"}, {"measurement": "maximum of antihistamine activity", "setting": "[2]", "result": "8 to 12", "unit": "h"}, {"measurement": "onset of antihistamine activity", "setting": "[2]", "result": "1 to 3", "unit": "h"}, {"measurement": "tolerance to antihistamine effect", "setting": "[2]", "result": "no evidence of tolerance"}]}]}
